We go through one substance from US6680367B1, “Fluorescent CRF receptor-binding peptides” (Advanced Bioconcept Company, priority 1995, dated 2004).

The experiment deals with T1, CRF receptors in rat cortex membranes (Rattus norvegicus, UniProt P35353).
T1 construct: from tissue; host or cells: rat cortex membranes
T1 sequence (P35353 24-415): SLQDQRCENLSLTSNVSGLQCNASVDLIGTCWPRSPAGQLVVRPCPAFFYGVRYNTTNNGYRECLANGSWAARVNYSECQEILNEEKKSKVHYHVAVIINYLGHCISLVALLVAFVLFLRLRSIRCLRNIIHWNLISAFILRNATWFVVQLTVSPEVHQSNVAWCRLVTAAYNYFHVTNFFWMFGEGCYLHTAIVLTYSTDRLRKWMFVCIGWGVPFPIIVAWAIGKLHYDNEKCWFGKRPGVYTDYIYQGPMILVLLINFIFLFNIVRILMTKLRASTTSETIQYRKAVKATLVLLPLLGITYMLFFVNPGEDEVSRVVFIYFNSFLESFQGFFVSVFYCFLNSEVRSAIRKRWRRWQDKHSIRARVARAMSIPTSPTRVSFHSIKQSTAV
Put plainly: Displacement of 125I labeled Tyr0 CRF (ovine) from CRF receptors on rat cortex membranes. To be noted: read-out: IC50 (concentration at which 50% of the binding is inhibited), displacement of 125I Tyr0 CRF (ovine). As to the method: Determination of IC50 for labeled peptides. […] In order to fully dissolve the peptide, the sample was reconstituted in 20 uL DMSO, vortexing well to ensure that all powder was completely dissolved, and then adding 0.48 mL of double distilled water. The stock solution was aliquoted to avoid repeated freezing and thawing of peptide. Unused aliquots were stored at −20° C. (protected from light) for maximum 24 hr.
Data for native and labeled peptides were analyzed by non-linear curve fitting. This included statistical evaluation of fit and calculation of IC50 and Ki values.

On to CRF (ovine), for which the IC50 was 3.8 nM.
